The target in the experiment is T1, AKT (serine/threonine protein kinase) (UniProt P31749 1-480, limits assumed).
T1 construct: AKT of the cells themselves in the co-immunoprecipitation; also called AKT1
T1 sequence (looked up): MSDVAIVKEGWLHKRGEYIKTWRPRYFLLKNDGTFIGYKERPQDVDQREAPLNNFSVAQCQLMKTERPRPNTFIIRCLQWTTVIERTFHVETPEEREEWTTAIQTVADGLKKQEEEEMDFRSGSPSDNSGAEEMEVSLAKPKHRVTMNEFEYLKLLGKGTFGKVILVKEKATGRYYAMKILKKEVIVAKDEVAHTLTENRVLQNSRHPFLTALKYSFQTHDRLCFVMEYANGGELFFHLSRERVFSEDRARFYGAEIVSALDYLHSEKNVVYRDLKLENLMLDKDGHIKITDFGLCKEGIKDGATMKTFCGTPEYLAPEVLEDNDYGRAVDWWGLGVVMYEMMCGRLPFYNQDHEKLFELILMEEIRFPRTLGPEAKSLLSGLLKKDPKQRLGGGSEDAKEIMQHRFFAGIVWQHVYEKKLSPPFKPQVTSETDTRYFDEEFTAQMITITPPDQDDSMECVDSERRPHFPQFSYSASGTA
In words: co-immunoprecipitation with TSPYL or AKT specific antibody, Western blotting. The method, then:
To confirm the binding between TSPYL5 and AKT, the lung cancer cell line A549 or H460 was transfected with wild-type TSPYL5 or TSPYL5-120A, from which proteins were separated. TSPYL or AKT specific antibody was diluted at the ratio of 200:1, which was placed in a 4 rotator, followed by reaction for at least 12 hours. The prepared A+G agarose beads were added thereto, followed by further reaction for 5 hours. Centrifugation was performed at 2000 rpm, at 4° C., for 3 minutes. The supernatant was discarded and the remaining beads were washed with a protein extraction solution three times. The protein was heated at 95 and the protein binding was confirmed by Western blotting.
(Immunoblotting shows a protein as a band on a membrane.)

B1: TSPYL5-120A mutant (120th residue threonine substituted with alanine) (other, UniProt Q86VY4 1-417, looked up)
chain: MSGRSRGRKSSRAKNRGKGRAKARVRPAPDDAPRDPDPSQYQSLGEDTQAAQVQAGAGWGGLEAAASAQLLRLGEEAACRLPLDCGLALRARAAGDHGQAAARPGPGKAASLSERLAADAVFVGTAGTVGRPKNAPRVGNRRGPAGKKAPETCSTAGRGPQVIAGGRQKKGAAGENTSVSAGEEKKEERDAGSGPPATEGSMDTLENVQLKLENMNAQADRAYLRLSRKFGQLRLQHLERRNHLIQNIPGFWGQAFQNHPQLASFLNSQEKEVLSYLNSLEVEELGLARLGYKIKFYFDRNPYFQNKVLIKEYGCGPSGQVVSRSTPIQWLPGHDLQSLSQGNPENNRSFFGWFSNHSSIESDKIVEIINEELWPNPLQFYLLSEGARVEKGKEKEGRQGPGKQPMETTQPGVSQSN
notes: Expressed from the transfected vector in lung cancer cells; tested in cell lysate by co-immunoprecipitation; also called T120A-TSPYL5; TSPYL5-T120A
As to B1, the binding result is “no binding”.

The values are drawn from patent publication US20180318378A1 (KOREA ATOMIC ENERGY RESEARCH INSTITUTE, published 2018).
